Data as given in publication PMC8484043 (Bioorganic & medicinal chemistry letters, 2021).

Protein sequences, listed by entry. Tags and fused reporters are not part of them.
UniProt Q9NYA1, whole entry: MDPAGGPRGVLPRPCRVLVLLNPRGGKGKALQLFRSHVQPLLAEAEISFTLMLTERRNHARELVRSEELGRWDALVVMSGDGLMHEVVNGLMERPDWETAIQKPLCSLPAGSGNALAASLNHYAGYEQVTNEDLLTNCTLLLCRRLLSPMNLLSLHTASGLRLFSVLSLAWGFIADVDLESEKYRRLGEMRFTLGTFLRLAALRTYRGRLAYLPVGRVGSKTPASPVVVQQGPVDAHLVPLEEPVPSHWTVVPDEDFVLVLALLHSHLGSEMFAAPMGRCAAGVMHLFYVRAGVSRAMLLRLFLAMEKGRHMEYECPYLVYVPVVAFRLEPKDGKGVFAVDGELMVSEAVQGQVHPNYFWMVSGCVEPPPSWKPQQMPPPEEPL

Target: sphingosine kinase 1 (Homo sapiens, UniProt Q9NYA1)
Type: biochemical
Conditions: single point assay, 1% DMSO, 100μM ATP

Mean SinglePoint (% inhibition) [Std. Dev (n = 4)]	Compound
−2 [3.8] % inhibition	O=C(N/N=C/c1cccc([N+](=O)[O-])c1)c1cc(-c2ccc3ccccc3c2)[nH]n1 [Inhibitor 4O]
−9 [12.7] % inhibition	O=C(N/N=C/C1CCCCC1)c1cc(-c2ccc3ccccc3c2)[nH]n1 [4 J]
10 [3.0] % inhibition	O=C(N/N=C/c1cccc(O)c1)c1cc(-c2ccc3ccccc3c2)n[nH]1 [Inhibitor 4H]
57 [9.9] % inhibition	COc1ccc(/C=N/NC(=O)c2cc(-c3ccc4ccccc4c3)[nH]n2)cc1OC [Inhibitor 4A]
10 [3.5] % inhibition	O=C(N/N=C/c1ccccc1)c1cc(-c2ccc3ccccc3c2)[nH]n1 [Inhibitor 4L]
−6 [6.2] % inhibition	O=C(N/N=C/c1ccccc1O)c1cc(-c2ccc3ccccc3c2)n[nH]1 [Inhibitor 4I]
−7 [8.6] % inhibition	O=C(N/N=C/c1cccc2ccccc12)c1cc(-c2ccc3ccccc3c2)[nH]n1 [4 K]
6 [4.2] % inhibition	COc1ccc2ccccc2c1/C=N/NC(=O)c1cc(-c2ccc3ccccc3c2)[nH]n1 [Inhibitor 4F]
18 [5.0] % inhibition	O=C(N/N=C/c1cccnc1)c1cc(-c2ccc3ccccc3c2)[nH]n1 [4 M]
−2 [5.4] % inhibition	COc1ccc(/C=N/NC(=O)c2cc(-c3ccc4ccccc4c3)[nH]n2)cc1 [Inhibitor 4C]
−3 [7.5] % inhibition	COc1cccc(/C=N/NC(=O)c2cc(-c3ccc4ccccc4c3)[nH]n2)c1 [Inhibitor 4E]
−15 [8.3] % inhibition	O=C(N/N=C/c1ccc(Cl)cc1)c1cc(-c2ccc3ccccc3c2)[nH]n1 [4 N]
4 [4.9] % inhibition	COc1ccccc1/C=N/NC(=O)c1cc(-c2ccc3ccccc3c2)[nH]n1 [Inhibitor 4D]
1 [7.9] % inhibition	O=C(N/N=C/c1ccc2c(c1)OCCO2)c1cc(-c2ccc3ccccc3c2)[nH]n1 [Inhibitor 4B]
17 [7.9] % inhibition	O=C(N/N=C/c1ccc(O)cc1)c1cc(-c2ccc3ccccc3c2)n[nH]1 [Inhibitor 4G]

Compound	Mean SinglePoint (% inhibition) [Std. Dev (n = 4)]
O=C(N/N=C/c1c(O)ccc2ccccc12)c1cc(-c2ccc3ccccc3c2)n[nH]1 [SKI-1, reference compound]	3 [2.2] % inhibition
